# Only a part is listed here, and it is no random draw. Calls of active or inactive are those of the source.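 The calls were made as follows: active = B-score of the integrated calcium signal more than 4 SD below the library mean, with starting fluorescence not abnormally high; inactive = the rest.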
# Test: RGS4 potentiators or activators, primary screen, cell-based, HEK293 M3R inducible RGS4, calcium flux (AID 463111);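 as to B-score: negative B-score means reduced calcium response which marks RGS4 activation or potentiation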
# Details: HEK293 M3R/inducible RGS4, carbachol calcium flux Fluo4, at 10 µM; active compounds read low
# Procedure, shortened: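 test system = HEK293 cells with stable M3R and inducible RGS4 | schedule = recording 10 s baseline at 1 Hz, 100 s post-agonist | technique = Fluo4-AM (2 µM) calcium-flux fluorescence, kinetic read | measure = Agonist-evoked peak-minus-minimum fluorescence over baseline, integrated ratio, B score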
Structure (SMILES),outcome,B-score
CCN1CCC(Nc2ccc(Cl)cc2)CC1,inactive,
N#CC1(Nc2ccccc2)CCN(CCc2ccccc2)CC1,inactive,
O=C(NCC1(N2CCCCC2)CCCCC1)c1cccc([N+](=O)[O-])c1,inactive,
O=C(NCC1(N2CCCCC2)CCCCC1)c1ccc(OC(F)F)cc1,inactive,
COc1cc(C(=O)NCC2(N3CCCCC3)CCCCC2)ccc1OC(F)F,,active: -8
O=C(NCC1(N2CCOCC2)CCCCC1)c1cc(=O)[nH]c2ccccc12,inactive,
CN1CCN(CCOC(=O)C(O)(c2ccccc2)c2ccccc2)CC1,inactive,
COc1ccc(NC2CCN(C(=O)OC(C)(C)C)CC2)cc1,inactive,
O=C(NCC1(N2CCCCC2)CCCCC1)c1cccc(C(F)(F)F)c1,inactive,
COc1cc(OC)c(C(=O)NCC2(N(C)C)CCCCC2)cc1OC,inactive,
CC(C)c1ccc(NC2CCN(C(=O)OC(C)(C)C)CC2)cc1,inactive,
COc1ccc(CN(CCCl)CCCl)cc1Cl,inactive,
CN(C)c1cccc(C(=O)NCC2(N3CCCCC3)CCCCC2)c1,inactive,
CCCOc1ccc(C(=O)NCC2(N(C)C)CCCCC2)cc1OC,inactive,
CN1CCC(Nc2cccc(F)c2)CC1,inactive,
CSc1ccccc1C(=O)NCC1(N2CCCCC2)CCCCC1,inactive,
COc1ccc(C(=O)NCC2(N3CCCCC3)CCCCC2)cc1,inactive,

Structure (SMILES),outcome,B-score
COc1ccc(C(=O)NCC2(N3CCCCC3)CCCCC2)c(OC)c1OC,inactive,
CC(C)(C)OC(=O)N1CCC(N(C(=O)c2ccccc2)c2ccc(F)cc2)CC1,inactive,
O=C(NCC1(N2CCCCC2)CCCCC1)c1ccc(=O)[nH]c1,inactive,
O=C(NCC1(N2CCCCC2)CCCCC1)c1cccs1,inactive,
O=C(OC1CN2CCC1CC2)C1c2ccccc2Oc2ccccc21 (stereo not drawn),,active: -6.97
N#CC1(Nc2ccccc2)CCN(Cc2ccccc2)CC1,inactive,
CCOC(=O)N1CCC(Nc2ccc(OC)cc2)CC1,inactive,
O=C(NCC1(N2CCCCC2)CCCCC1)c1ccc(Cl)nc1,inactive,
Cc1cc(C)cc(N(C(=O)c2ccccc2)C2CCN(C(=O)OC(C)(C)C)CC2)c1,inactive,
O=C(NCC1(N2CCOCC2)CCCCC1)c1cc2ccccc2o1,inactive,
O=C(NCC1(N2CCCCC2)CCCCC1)c1ccc(F)cc1,inactive,
COc1ccc(NC2CCN(CCc3ccccc3)CC2)c(OC)c1,inactive,
CCOC(=O)N1CCC(Nc2ccc(F)cc2)CC1,inactive,
CCOc1ccc(C)cc1CN(CCCl)CCCl,,active: -11.1
COc1cc(C(=O)NCC2(N(C)C)CCCCC2)ccc1OC(F)F,inactive,
CCOC(=O)N1CCC(Nc2cccc(C)c2)CC1,inactive,
